Experimental findings from patent US20260384426A1, “HETEROCYCLIC GLP-1 AGONISTS” (published 2026) are described below.

The chains behind the UniProt entries cited, without tags or fusion partners. Residues count along the entry.
UniProt P43220, 24-463 limits assumed: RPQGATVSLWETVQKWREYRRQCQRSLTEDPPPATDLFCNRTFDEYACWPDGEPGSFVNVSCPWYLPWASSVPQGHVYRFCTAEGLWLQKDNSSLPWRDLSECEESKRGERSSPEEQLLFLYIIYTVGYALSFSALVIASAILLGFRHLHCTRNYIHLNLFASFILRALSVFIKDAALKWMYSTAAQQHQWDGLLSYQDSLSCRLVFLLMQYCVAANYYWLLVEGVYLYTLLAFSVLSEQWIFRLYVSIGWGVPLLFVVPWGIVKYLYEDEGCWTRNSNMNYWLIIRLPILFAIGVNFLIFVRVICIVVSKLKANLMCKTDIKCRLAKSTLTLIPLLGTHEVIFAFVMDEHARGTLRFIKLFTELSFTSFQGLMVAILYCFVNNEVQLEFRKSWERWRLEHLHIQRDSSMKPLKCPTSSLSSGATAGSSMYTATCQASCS

pEC50: −log10 of the molar value.

This test concerns the target GLP-1 Receptor (Homo sapiens, UniProt P43220). The test can be described thus: GLP-1R agonist cAMP stimulation assay in HEK293/GLP1R/CRE-LUC cells. The following applies: read-out: EC50 (GLP-1R agonist cAMP stimulation assay); HEK293/CRE-Luc cells stably expressing GLP-1 receptor; 37 °C, 30 min; 0.5 mM IBMX, 0.1% BSA; cAMP dynamic 2 Kit (Cisbio). How it is done:
Activation of GLP-1 receptor is known to stimulate cyclic AMP (cAMP) production in cells which indicates primary coupling to the G as subunit of the G protein heterotrimeric complex.
To optimize functional activity directed toward G as coupling, a HEK293/CRE-Luc cell line developed by HDB stably expressing the GLP-1 Receptor was used. 200× concentration of compound working solutions were prepared (Agilent Technologies Bravo) with 1/2 log serial dilution in 384-well Echo LDV plate (Labcyte, Cat #LP-0200). 50 nL/well 200× concentration of compound working solutions were moved to 384-well white low volume plate (Greiner, Cat #784075) using Labcyte ECHO550.1×10^5 cells/mL HEK293/GLP1R/CRE-LUC (HD Biosciences) cell suspensions prepared with assay buffer [DPBS containing 0.5 mM IBMX (Sigma, Cat #I5879) and 0.1% BSA (GENVIEW, Cat #FA016-100g)], 10 μL cell suspensions were added to each well of previous generated assay plate which already contains 50 nL compound at 200× concentration using ThermoFisher Multidrop Combi (1000 cells/well). The plate was sealed and incubated at 37 °C with 5% CO2 for 30 min.
After incubation the cAMP assay signal was generated using cAMP dynamic 2 Kit (Cisbio). 5 μL cAMP-d2 working solution was added to each well, followed with 5 μL Anti-cAMP antibody-cryptate working solution added to each well using ThermoFisher Multidrop Combi. Incubate at room temperature for 1 hour protected from light. Read the fluorescence at 665 and 615 nm with Reader PerkinElmer EnVision.
% Activity=100%×(mean RLU of test sample−mean RLU of vehicle control)/(mean RLU of MAX control−mean RLU of vehicle control)

On to `Cc1cc(-n2c(N3CC(c4ccc(S(=O)(=O)C5CC5)cc4)C3)nc3c(c2=O)CCN(C(=O)c2cc4cc(C5CCOCC5)ccc4n2[C@@]2(c4noc(=O)[nH]4)C[C@@H]2C)[C@H]3C)cc(C)c1F`, for which the pEC50 was 7.77. The value for `C[C@H]1c2nc(N3CCN(Cc4ccccc4)C3=O)n(-c3ccccc3)c(=O)c2CCN1C(=O)c1cc2cc(C3CCOCC3)ccc2n1[C@@]1(c2noc(=O)[nH]2)C[C@@H]1C` was 7.42; that for `C[C@H]1C[C@]1(c1noc(=O)[nH]1)n1c(C(=O)N2CCc3c(nc(N4CCN(c5ccccc5)C4=O)n(-c4cccc(C(=O)O)c4)c3=O)C2)cc2cc(C3CCOCC3)ccc21` was 6.11. As to `Cc1nnc(Cn2c(C(=O)N3CCc4c(nc(N5CCN(c6ccccc6)C5=O)n(-c5cc(C)c(F)c(C)c5)c4=O)C3)cc3cc(C4CCOCC4)ccc32)o1`, the pEC50 is 6.05. The result for `Cc1cc(-n2c(NC(=O)OCc3ccccc3)nc3c(c2=O)CCN(C(=O)c2cc4cc(C5CCOCC5)ccc4n2[C@@]2(c4noc(=O)[nH]4)C[C@@H]2C)[C@H]3C)cc(C)c1F` reads 7.14; that for `Cc1cc(-n2c(N3CC(c4cccc(S(C)(=O)=O)c4)C3)nc3c(c2=O)CCN(C(=O)c2cc4cc(C5CCOCC5)ccc4n2[C@@]2(c4noc(=O)[nH]4)C[C@@H]2C)[C@H]3C)cc(C)c1F`, 7.60. The value for `Cc1cc(-n2c(OCCc3ccc(S(=O)(=O)C4CC4)cc3)nc3c(c2=O)CCN(C(=O)c2cc4cc(C5CCOCC5)ccc4n2[C@@]2(c4noc(=O)[nH]4)C[C@@H]2C)[C@H]3C)cc(C)c1F` was 7.16; that for `Cc1cc(-n2c(N3CCN(c4ccccc4)C3=O)nc3c(c2=O)CCN(C(=O)c2cc4cc(C5CCOCC5)ccc4n2C2(c4nc(=O)o[nH]4)CC2)C3)cc(C)c1F` was 6.96; that for `COCc1cccc(-n2c(N3CCN(c4ccccc4)C3=O)nc3c(c2=O)CCN(C(=O)c2cc4cc(C5CCOCC5)ccc4n2[C@@]2(c4noc(=O)[nH]4)C[C@@H]2C)C3)c1` was 7.31. The result for `C[C@H]1C[C@]1(c1noc(=O)[nH]1)n1c(C(=O)N2CCc3c(nc(N4CCN(c5ccccc5)C4=O)n(-c4ccccc4)c3=O)C2)cc2cc(C3CCOCC3)ccc21` reads 7.47. Regarding `C[C@H]1C[C@]1(c1noc(=O)[nH]1)n1c(C(=O)N2CCc3c(nc(N4CCN(c5ccccc5)C4=O)n(-c4ccccc4CC(=O)O)c3=O)C2)cc2cc(C3CCOCC3)ccc21`, the pEC50 is 6.85. The value for `COc1ccc(CN2CCN(c3nc4c(c(=O)n3-c3cc(C)c(F)c(C)c3)CCN(C(=O)c3cc5cc(C6CCOCC6)ccc5n3[C@@]3(c5noc(=O)[nH]5)C[C@@H]3C)[C@H]4C)C2=O)cc1` was 6.85; that for `Cc1cc(-n2c(N3CCN(C(C)c4ccccc4)C3=O)nc3c(c2=O)CCN(C(=O)c2cc4cc(C5CCOCC5)ccc4n2[C@@]2(c4noc(=O)[nH]4)C[C@@H]2C)[C@H]3C)cc(C)c1F` (stereo partly shown) was 7.14. Take `COCc1ccccc1-n1c(N2CCN(c3ccccc3)C2=O)nc2c(c1=O)CCN(C(=O)c1cc3cc(C4CCOCC4)ccc3n1[C@@]1(c3noc(=O)[nH]3)C[C@@H]1C)C2`: the pEC50 was 7.48.

For `Cc1cc(-n2c(N3CCN(Cc4ccc(S(=O)(=O)C5CC5)cc4)C3=O)nc3c(c2=O)CCN(C(=O)c2cc4cc(C5CCOCC5)ccc4n2[C@@]2(c4noc(=O)[nH]4)C[C@@H]2C)[C@H]3C)cc(C)c1F`, the negative-log EC50 (pEC50) is 6.62.

Take `Cc1cc(-n2c(N3CCN(c4ccccc4)C3=O)nc3c(c2=O)CCN(C(=O)c2cc4cc(C5CCOCC5)ccc4n2Cc2cnccn2)C3)cc(C)c1F`: the pEC50 is 6.46. The result for `Cc1cc(-n2c(NCCc3ccccc3)nc3c(c2=O)CCN(C(=O)c2cc4cc(C5CCOCC5)ccc4n2C2(c4noc(=O)[nH]4)CC2)C3)cc(C)c1F` reads 6.55. The value for `Cc1cc(-n2c(N3CCC(c4ccccc4)C3)nc3c(c2=O)CCN(C(=O)c2cc4cc(C5CCOCC5)ccc4n2[C@@]2(c4noc(=O)[nH]4)C[C@@H]2C)C3)cc(C)c1F` (stereo partly shown) was 6.55. With `COc1cccc(CN2CCN(c3nc4c(c(=O)n3-c3cc(C)c(F)c(C)c3)CCN(C(=O)c3cc5cc(C6CCOCC6)ccc5n3[C@@]3(c5noc(=O)[nH]5)C[C@@H]3C)[C@H]4C)C2=O)c1`, the negative-log EC50 (pEC50) was 6.85. The value for `Cc1cc(-n2c(NCCc3ccc4c(cnn4C)c3)nc3c(c2=O)CCN(C(=O)c2cc4cc(C5CCOCC5)ccc4n2[C@@]2(c4noc(=O)[nH]4)C[C@@H]2C)C3)cc(C)c1F` was 6.77. The result for `C[C@H]1C[C@]1(c1noc(=O)[nH]1)n1c(C(=O)N2CCc3c(nc(N4CCN(c5ccccc5)C4=O)n(-c4ccccc4C(=O)O)c3=O)C2)cc2cc(C3CCOCC3)ccc21` reads 6.55; that for `Cc1cc(-n2c(N3CC(c4ccccc4)C3)nc3c(c2=O)CCN(C(=O)c2cc4cc(C5CCOCC5)ccc4n2[C@@]2(c4noc(=O)[nH]4)C[C@@H]2C)[C@H]3C)cc(C)c1F`, 7.10; that for `Cc1cc(-n2c(NCCc3ccc(S(=O)(=O)C4CC4)cc3)nc3c(c2=O)CCN(C(=O)c2cc4cc(C5CCOCC5)ccc4n2[C@@]2(c4noc(=O)[nH]4)C[C@@H]2C)[C@H]3C)cc(C)c1F`, 7.89.

For the compound `C[C@H]1C[C@]1(c1noc(=O)[nH]1)n1c(C(=O)N2CCc3c(nc(N4CCN(c5ccccc5)C4=O)n(-c4cccc(CC(=O)O)c4)c3=O)C2)cc2cc(C3CCOCC3)ccc21`, the pEC50 was 6.48.

As to `Cc1cc(-n2c(N3CCN(c4ccccc4)C3=O)nc3c(c2=O)CCN(C(=O)c2cc4cc(C5CCOCC5)ccc4n2[C@@]2(c4noc(=O)[nH]4)C[C@@H]2C)[C@H]3C)cc(C)c1F`, the negative-log EC50 (pEC50) was 8.00. The result for `Cc1cc(-n2c(N3CCC(c4ccccc4)CC3)nc3c(c2=O)CCN(C(=O)c2cc4cc(C5CCOCC5)ccc4n2[C@@]2(c4noc(=O)[nH]4)C[C@@H]2C)C3)cc(C)c1F` reads 6.39.

In the case of `Cc1cc(-n2c(N3CC(c4ccc5c(cnn5C)c4)C3)nc3c(c2=O)CCN(C(=O)c2cc4cc(C5CCOCC5)ccc4n2[C@@]2(c4noc(=O)[nH]4)C[C@@H]2C)C3)cc(C)c1F`, the pEC50 is 6.72. The value for `Cc1cc(-n2c(N3CCN(Cc4ccccc4)C3=O)nc3c(c2=O)CCN(C(=O)c2cc4cc(C5CCOCC5)ccc4n2[C@@]2(c4noc(=O)[nH]4)C[C@@H]2C)[C@H]3C)cc(C)c1F` was 7.92.

Broadly, the pEC50 is the negative decadic logarithm of the EC50, by convention in mol/L.
